Here are results for one compound from BindingDB's records for patent US10413550 (The Institute of Cancer Research, 2019).

Sequences of proteins named here, by UniProt entry; tags and fusion partners are left off.
UniProt A9CPF9, whole entry: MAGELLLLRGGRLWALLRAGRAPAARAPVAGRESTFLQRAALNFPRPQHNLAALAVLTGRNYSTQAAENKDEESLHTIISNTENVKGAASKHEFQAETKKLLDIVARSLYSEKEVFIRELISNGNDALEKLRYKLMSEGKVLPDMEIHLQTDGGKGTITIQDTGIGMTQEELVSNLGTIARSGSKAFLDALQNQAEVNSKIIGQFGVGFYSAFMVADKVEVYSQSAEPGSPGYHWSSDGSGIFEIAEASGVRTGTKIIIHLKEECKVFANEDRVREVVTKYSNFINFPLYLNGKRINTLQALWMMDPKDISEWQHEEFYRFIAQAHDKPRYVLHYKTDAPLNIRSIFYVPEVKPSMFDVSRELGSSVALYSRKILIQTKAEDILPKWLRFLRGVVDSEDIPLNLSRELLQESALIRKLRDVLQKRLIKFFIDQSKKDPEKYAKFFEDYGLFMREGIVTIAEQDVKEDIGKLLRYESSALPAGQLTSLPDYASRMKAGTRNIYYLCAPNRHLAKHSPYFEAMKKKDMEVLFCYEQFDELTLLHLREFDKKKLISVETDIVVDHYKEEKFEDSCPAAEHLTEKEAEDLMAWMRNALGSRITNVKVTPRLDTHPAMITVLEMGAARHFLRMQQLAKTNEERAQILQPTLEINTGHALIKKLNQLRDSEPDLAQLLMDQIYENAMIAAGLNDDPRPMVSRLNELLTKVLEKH
UniProt P08238, whole entry: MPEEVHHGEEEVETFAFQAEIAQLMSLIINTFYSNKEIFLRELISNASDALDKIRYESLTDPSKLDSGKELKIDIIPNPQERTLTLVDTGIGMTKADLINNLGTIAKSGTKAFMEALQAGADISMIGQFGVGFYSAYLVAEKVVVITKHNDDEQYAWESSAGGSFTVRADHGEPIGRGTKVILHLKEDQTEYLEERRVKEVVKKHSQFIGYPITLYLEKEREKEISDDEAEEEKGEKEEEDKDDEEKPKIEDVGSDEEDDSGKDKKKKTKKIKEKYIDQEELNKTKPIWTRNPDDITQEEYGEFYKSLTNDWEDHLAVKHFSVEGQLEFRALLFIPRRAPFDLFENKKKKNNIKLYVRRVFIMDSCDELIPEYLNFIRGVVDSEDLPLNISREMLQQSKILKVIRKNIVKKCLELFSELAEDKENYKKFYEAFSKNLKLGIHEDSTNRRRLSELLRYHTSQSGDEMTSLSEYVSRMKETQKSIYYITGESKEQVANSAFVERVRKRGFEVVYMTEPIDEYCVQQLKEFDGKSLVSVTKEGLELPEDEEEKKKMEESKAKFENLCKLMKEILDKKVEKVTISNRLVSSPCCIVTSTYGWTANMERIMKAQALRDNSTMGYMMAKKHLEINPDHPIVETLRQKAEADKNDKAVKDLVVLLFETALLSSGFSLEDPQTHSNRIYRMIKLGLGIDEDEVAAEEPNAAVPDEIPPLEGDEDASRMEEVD
UniProt P14625, whole entry: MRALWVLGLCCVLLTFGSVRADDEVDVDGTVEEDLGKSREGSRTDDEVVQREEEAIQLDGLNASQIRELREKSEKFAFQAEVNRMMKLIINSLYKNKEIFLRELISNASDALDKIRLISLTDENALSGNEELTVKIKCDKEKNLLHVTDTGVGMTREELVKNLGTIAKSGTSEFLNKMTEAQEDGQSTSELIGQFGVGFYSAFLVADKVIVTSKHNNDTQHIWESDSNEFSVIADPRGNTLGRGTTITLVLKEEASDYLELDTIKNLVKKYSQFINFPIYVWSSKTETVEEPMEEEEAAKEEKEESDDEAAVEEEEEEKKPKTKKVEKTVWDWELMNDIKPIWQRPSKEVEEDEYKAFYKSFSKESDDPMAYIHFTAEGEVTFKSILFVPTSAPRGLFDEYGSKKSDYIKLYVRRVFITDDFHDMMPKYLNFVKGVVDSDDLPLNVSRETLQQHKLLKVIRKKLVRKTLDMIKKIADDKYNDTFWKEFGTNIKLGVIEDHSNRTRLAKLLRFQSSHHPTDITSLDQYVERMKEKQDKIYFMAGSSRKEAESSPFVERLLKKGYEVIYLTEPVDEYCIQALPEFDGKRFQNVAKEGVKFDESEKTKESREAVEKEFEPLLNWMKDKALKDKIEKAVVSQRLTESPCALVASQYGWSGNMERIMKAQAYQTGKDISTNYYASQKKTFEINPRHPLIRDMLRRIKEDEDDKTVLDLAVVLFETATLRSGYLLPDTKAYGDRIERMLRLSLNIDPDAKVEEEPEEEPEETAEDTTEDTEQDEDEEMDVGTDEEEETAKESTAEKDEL

A value given as a limit tells only on which side of the number the result lay.

The target of the test is Endoplasmin/Heat shock protein 75/Heat shock protein HSP 90-alpha/Heat shock protein HSP 90-beta (Homo sapiens, UniProt A9CPF9+P07900+P08238+P14625). In words: Malachite Green ATPase Assay. As to the method:
Method 1. Dilute test compounds to 500 μM in AR water (DMSO concentration will be 2.5%). Transfer 2.5 μl of these compounds directly from the daughter plate to the assay plate, giving a final assay concentration of 100 μM. […] Column 1 in the assay plate contains no compound, as a negative control. […] 2. […] 3. […] 4. […] 5. […] 6. First thing in the morning prepare the Malachite Green Reagent. […] 7. […] 8. […] 9. […] 11.

In general, IC50 refers to the point on the concentration scale where inhibition reaches its midpoint. In the case of `COc1ccc(-c2c(C)noc2-c2cc(-c3cccnc3)c(O)cc2O)cc1` [US10413550, Example 12], the IC50 was above 10 µM.
